Test results: patent US9616063B2, “1-[2-(aminomethyl)benzyl]-2-thioxo-1,2,3,5-tetrahydro-4H-pyrrolo[3,2-d]pyrimidin-4-ones as inhibitors of myeloperoxidase” (AstraZeneca AB, priority 2014, dated 2017)

Chains of the proteins cited; added tags and fusions are not shown.
UniProt P05164, whole entry, looked up, stated change not applied: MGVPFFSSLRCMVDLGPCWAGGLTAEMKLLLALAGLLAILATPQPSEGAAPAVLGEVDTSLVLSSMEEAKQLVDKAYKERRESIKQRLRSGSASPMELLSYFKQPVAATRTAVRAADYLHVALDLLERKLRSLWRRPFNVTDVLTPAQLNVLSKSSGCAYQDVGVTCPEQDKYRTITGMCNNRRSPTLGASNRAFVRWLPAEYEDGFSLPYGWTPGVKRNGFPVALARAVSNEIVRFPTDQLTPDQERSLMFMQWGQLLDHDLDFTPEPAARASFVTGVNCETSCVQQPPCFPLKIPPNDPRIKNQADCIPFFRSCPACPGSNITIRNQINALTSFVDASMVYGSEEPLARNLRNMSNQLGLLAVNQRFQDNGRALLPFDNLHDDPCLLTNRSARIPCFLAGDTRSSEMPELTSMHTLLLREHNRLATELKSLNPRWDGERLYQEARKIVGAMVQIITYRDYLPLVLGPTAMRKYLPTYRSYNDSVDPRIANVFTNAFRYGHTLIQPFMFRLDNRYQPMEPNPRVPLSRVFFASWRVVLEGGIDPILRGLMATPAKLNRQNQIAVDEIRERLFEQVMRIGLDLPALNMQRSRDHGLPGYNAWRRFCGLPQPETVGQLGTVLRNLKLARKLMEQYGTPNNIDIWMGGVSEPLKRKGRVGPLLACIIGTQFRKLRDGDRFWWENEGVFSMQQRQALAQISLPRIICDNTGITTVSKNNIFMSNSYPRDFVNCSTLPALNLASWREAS

Target: MPO purified from the human cell line HL60 (Homo sapiens (Human), UniProt P05164)
Experiment: MPO inhibition, Test A (loss of ascorbate, absorbance at 260 nm)
Format: biochemical
Settings: absorbance at 260 nm 20 minutes after substrate addition
Method: Methods for the determination of MPO inhibitory activity are disclosed in WO 02/090575. The pharmacological activity of compounds disclosed herein was tested in the following screen (Test A) in which the compounds were tested in the presence of ascorbate, which reacts with MPO-derived hypochlorous acid (HOCl) to form dehydro-ascorbate. The loss of ascorbate is followed by measuring absorbance at 260 nm.
Assay buffer: 100 μM diethyl triamine pentaacetic acid (DTPA) in buffer consisting of 10 mM Na2HPO4/NaH2PO4, 3 mM KCl in 140 mM NaCl, pH 7.4.
Enzyme solution: MPO purified from the human cell line HL60, 1.38 nM (final concentration 0.7 nM) and L-ascorbate, 100 μM (final concentration 50 μM) in Assay buffer
Substrate solution: H2O2, 98 μM (final concentration 49 μM) Forty μL of the enzyme solution was added to 0.6 μL compound serially diluted in DMSO. Absorbance was measured at 260 nm to obtain a compound blank value. After an additional 10 min, 40 μL of the substrate solution was added and the absorbance at 260 nm was recorded between 4 and 40 min to obtain kinetic readings of enzyme activity.

## NCc1cc(Cl)ccc1Cn1c(=S)[nH]c(=O)c2[nH]ccc21 [Example 7, 1-[2-(Aminomethyl)-4-chlorobenzyl]-2-thioxo-1,2,3,5-tetrahydro-4H-pyrrolo[3,2-d]pyrimidin-4-one]
  IC50: 0.015 µM
